Values of other authors in publication PMC11243196, “Identification of Benzothiazoles Bearing 1,3,4-Thiadiazole as Antiproliferative Hybrids Targeting VEGFR-2 and BRAF Kinase: Design, Synthesis, BIO Evaluation and In Silico Study” (Molecules, 2024).

System: VEGFR-2 in MCF-7 cells
Set-up: method as in PMID 32045054
Conditions: cited from earlier work

SMILES: CNC(=O)c1cc(Oc2ccc(NC(=O)Nc3ccc(Cl)c(C(F)(F)F)c3)cc2)ccn1 [SOR, Sorafenib]
- inhibitory effect on VEGFR-2 in MCF-7 cells: 88%
